According to PubChem BioAssay (NCI):
Only a part is listed here, and it is no random draw.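 Compound tested at a single concentration for 48 hours in 96-well plates; a percent growth value below 10 was scored as active.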 The source made the active and inactive calls.

Tests used:
Assay in all cases: NCI-60 one-dose screen, 48 h (100 = growth as untreated, 0 = no growth, -100 = all killed)
Conditions in all cases: 10 µM
NCI-H23 lung = system: NCI-H23 lung
NCI-H226 lung = system: NCI-H226 lung
NCI-H322M lung = system: NCI-H322M lung
HOP-62 NSCLC = system: HOP-62 NSCLC
NCI-H460 lung = system: NCI-H460 lung
HOP-92 NSCLC = system: HOP-92 NSCLC
NCI-H522 lung = system: NCI-H522 lung
A549/ATCC NSCLC = system: A549/ATCC NSCLC
786-0 renal = system: 786-0 renal
COLO 205 colon = system: COLO 205 colon
DU-145 prostate = system: DU-145 prostate
K-562 leukemia = system: K-562 leukemia
MALME-3M melanoma = system: MALME-3M melanoma
MDA-MB-231 breast = system: MDA-MB-231 breast
RXF 393 renal = system: RXF 393 renal
SF-268 CNS = system: SF-268 CNS
SF-295 CNS = system: SF-295 CNS
SF-539 CNS = system: SF-539 CNS
UACC-257 melanoma = system: UACC-257 melanoma
M14 melanoma = system: M14 melanoma

Measured: growth

ClCCN1[C@@H](CCl)CC[C@@H]1c1ccccc1
inactive: NCI-H23 lung 90.4% | NCI-H226 lung 107% | NCI-H322M lung 117% | HOP-62 NSCLC 103% | NCI-H460 lung 88.4% | HOP-92 NSCLC 99.8% | NCI-H522 lung 86.3% | A549/ATCC NSCLC 97.3% | 786-0 renal 101% | COLO 205 colon 105% | DU-145 prostate 113% | K-562 leukemia 84.8% | MALME-3M melanoma 117% | MDA-MB-231 breast 107% | RXF 393 renal 106% | SF-268 CNS 98.4% | SF-295 CNS 112% | SF-539 CNS 99.1% | UACC-257 melanoma 101% | M14 melanoma 100%

Cc1ccc(NC2(C(N)=O)CCNCC2)cc1
inactive: NCI-H23 lung 93.7% | NCI-H226 lung 98.5% | NCI-H322M lung 103% | HOP-62 NSCLC 105% | NCI-H460 lung 109% | HOP-92 NSCLC 91.4% | NCI-H522 lung 53.1% | A549/ATCC NSCLC 99.2% | 786-0 renal 95.4% | COLO 205 colon 114% | DU-145 prostate 111% | K-562 leukemia 107% | MALME-3M melanoma 99.6% | MDA-MB-231 breast 96.7% | RXF 393 renal 103% | SF-268 CNS 101% | SF-295 CNS 98.3% | SF-539 CNS 105% | UACC-257 melanoma 104% | M14 melanoma 98.8%

O=Cc1ccc(N(CCCl)CCCl)cc1Cl
active: NCI-H226 lung -63.8% | NCI-H460 lung 2.87% | UACC-257 melanoma -46.4%
inactive: NCI-H23 lung 69.8% | NCI-H322M lung 102% | HOP-62 NSCLC 60.7% | HOP-92 NSCLC 63.3% | NCI-H522 lung 83.8% | A549/ATCC NSCLC 49.5% | 786-0 renal 86.2% | COLO 205 colon 50.5% | DU-145 prostate 88.6% | K-562 leukemia 72.1% | MALME-3M melanoma 100% | MDA-MB-231 breast 104% | RXF 393 renal 63.7% | SF-268 CNS 97.2% | SF-539 CNS 87.7% | M14 melanoma 102%

NC(=O)C1(Nc2ccccc2)CCNCC1
inactive: NCI-H23 lung 102% | NCI-H226 lung 97.6% | NCI-H322M lung 105% | HOP-62 NSCLC 101% | NCI-H460 lung 117% | HOP-92 NSCLC 98.2% | NCI-H522 lung 83.4% | A549/ATCC NSCLC 99.4% | 786-0 renal 94.9% | COLO 205 colon 115% | DU-145 prostate 116% | K-562 leukemia 107% | MALME-3M melanoma 106% | MDA-MB-231 breast 104% | RXF 393 renal 110% | SF-268 CNS 98.9% | SF-295 CNS 102% | SF-539 CNS 95.4% | UACC-257 melanoma 103% | M14 melanoma 96.5%

Cc1ccc(NC2(C(N)=O)CCN(Cc3ccccc3)CC2)cc1
inactive: NCI-H23 lung 95.6% | NCI-H226 lung 94.6% | NCI-H322M lung 99% | HOP-62 NSCLC 100% | NCI-H460 lung 110% | HOP-92 NSCLC 87.9% | NCI-H522 lung 93.4% | A549/ATCC NSCLC 99.7% | 786-0 renal 101% | COLO 205 colon 118% | DU-145 prostate 117% | K-562 leukemia 105% | MALME-3M melanoma 104% | MDA-MB-231 breast 102% | RXF 393 renal 102% | SF-268 CNS 106% | SF-295 CNS 97.3% | SF-539 CNS 114% | UACC-257 melanoma 103% | M14 melanoma 105%

COc1ccc(N)cc1CN(CCCl)CCCl
inactive: NCI-H23 lung 71.6% | NCI-H226 lung 77.9% | NCI-H322M lung 101% | HOP-62 NSCLC 60.8% | NCI-H460 lung 46.3% | HOP-92 NSCLC 62.7% | NCI-H522 lung 44.9% | A549/ATCC NSCLC 69.7% | 786-0 renal 57.6% | COLO 205 colon 59.6% | DU-145 prostate 93.5% | K-562 leukemia 74.4% | MALME-3M melanoma 96.5% | MDA-MB-231 breast 95% | RXF 393 renal 88.2% | SF-268 CNS 75.7% | SF-295 CNS 89% | SF-539 CNS 65% | UACC-257 melanoma 81.1% | M14 melanoma 71.9%

Cc1ccc(NC2(C#N)CCN(Cc3ccccc3)CC2)cc1
inactive: NCI-H23 lung 108% | NCI-H226 lung 93.8% | NCI-H322M lung 94.7% | HOP-62 NSCLC 89% | NCI-H460 lung 103% | HOP-92 NSCLC 89.1% | NCI-H522 lung 87.5% | A549/ATCC NSCLC 93.8% | 786-0 renal 101% | COLO 205 colon 129% | DU-145 prostate 107% | K-562 leukemia 101% | MALME-3M melanoma 91.2% | MDA-MB-231 breast 101% | RXF 393 renal 91.1% | SF-268 CNS 110% | SF-295 CNS 105% | SF-539 CNS 93.7% | UACC-257 melanoma 83.3% | M14 melanoma 90%

N#Cc1ccc(N(CCCl)CCCl)cc1
inactive: NCI-H23 lung 96.4% | NCI-H226 lung 98.4% | NCI-H322M lung 102% | HOP-62 NSCLC 91.2% | NCI-H460 lung 106% | HOP-92 NSCLC 77.5% | NCI-H522 lung 94.6% | A549/ATCC NSCLC 96.5% | 786-0 renal 104% | COLO 205 colon 103% | DU-145 prostate 111% | K-562 leukemia 98% | MALME-3M melanoma 116% | MDA-MB-231 breast 114% | RXF 393 renal 117% | SF-268 CNS 106% | SF-295 CNS 102% | SF-539 CNS 91% | UACC-257 melanoma 104% | M14 melanoma 98.7%

O=C(O)Cc1c[nH]c2ccc(N(CCCl)CCCl)cc12
inactive: NCI-H23 lung 104% | NCI-H226 lung 98.5% | NCI-H322M lung 129% | HOP-62 NSCLC 108% | NCI-H460 lung 94.1% | HOP-92 NSCLC 79.2% | NCI-H522 lung 95.1% | A549/ATCC NSCLC 108% | 786-0 renal 107% | COLO 205 colon 115% | DU-145 prostate 107% | K-562 leukemia 105% | MALME-3M melanoma 121% | MDA-MB-231 breast 93.8% | RXF 393 renal 109% | SF-268 CNS 111% | SF-295 CNS 89.6% | SF-539 CNS 106% | UACC-257 melanoma 106% | M14 melanoma 105%

C1CCNCC1.O=C(O)C(O)c1ccc(N(CCCl)CCCl)cc1 (stereo not drawn)
inactive: NCI-H23 lung 106% | NCI-H226 lung 78.5% | NCI-H322M lung 98.5% | HOP-62 NSCLC 104% | NCI-H460 lung 95.2% | HOP-92 NSCLC 89.9% | NCI-H522 lung 87.5% | A549/ATCC NSCLC 102% | 786-0 renal 108% | COLO 205 colon 94.4% | DU-145 prostate 103% | K-562 leukemia 88.2% | MALME-3M melanoma 97.4% | MDA-MB-231 breast 104% | RXF 393 renal 96.7% | SF-268 CNS 91.4% | SF-295 CNS 101% | SF-539 CNS 98.4% | UACC-257 melanoma 111% | M14 melanoma 100%

Cc1ccc(C(=O)N(CCCl)CCCl)cc1
inactive: NCI-H23 lung 113% | NCI-H226 lung 96.2% | NCI-H322M lung 101% | HOP-62 NSCLC 114% | NCI-H460 lung 99.7% | HOP-92 NSCLC 99.8% | NCI-H522 lung 84.5% | A549/ATCC NSCLC 95% | 786-0 renal 102% | COLO 205 colon 115% | DU-145 prostate 110% | K-562 leukemia 117% | MALME-3M melanoma 95.2% | MDA-MB-231 breast 102% | RXF 393 renal 94.1% | SF-268 CNS 110% | SF-539 CNS 104% | UACC-257 melanoma 108% | M14 melanoma 114%

O=C(O)CCc1ccc(CSCCCl)cc1
inactive: NCI-H23 lung 107% | NCI-H226 lung 103% | NCI-H322M lung 105% | HOP-62 NSCLC 106% | NCI-H460 lung 108% | HOP-92 NSCLC 103% | NCI-H522 lung 99.1% | A549/ATCC NSCLC 106% | 786-0 renal 102% | COLO 205 colon 107% | DU-145 prostate 105% | K-562 leukemia 97.2% | MALME-3M melanoma 102% | MDA-MB-231 breast 98.6% | RXF 393 renal 114% | SF-268 CNS 101% | SF-295 CNS 100% | SF-539 CNS 98% | UACC-257 melanoma 116% | M14 melanoma 105%

Cc1ccc(N(CCCl)CCCl)cc1
inactive: NCI-H23 lung 57.1% | NCI-H226 lung 85.2% | NCI-H322M lung 103% | HOP-62 NSCLC 62.9% | NCI-H460 lung 25.4% | HOP-92 NSCLC 77.1% | NCI-H522 lung 71.4% | A549/ATCC NSCLC 62.7% | 786-0 renal 31.5% | COLO 205 colon 86.9% | DU-145 prostate 36.7% | K-562 leukemia 94.8% | MALME-3M melanoma 90.5% | MDA-MB-231 breast 131% | RXF 393 renal 93.8% | SF-268 CNS 48.7% | SF-295 CNS 37.6% | SF-539 CNS 47.2% | UACC-257 melanoma 102% | M14 melanoma 59%

ClCCN(CCCl)CCc1ccccc1
inactive: NCI-H23 lung 97.2% | NCI-H226 lung 96.8% | NCI-H322M lung 93.6% | HOP-62 NSCLC 103% | NCI-H460 lung 94.6% | HOP-92 NSCLC 107% | NCI-H522 lung 79.6% | A549/ATCC NSCLC 93% | 786-0 renal 103% | COLO 205 colon 111% | DU-145 prostate 109% | K-562 leukemia 101% | MALME-3M melanoma 120% | MDA-MB-231 breast 81.1% | RXF 393 renal 119% | SF-268 CNS 105% | SF-295 CNS 125% | SF-539 CNS 95.6% | UACC-257 melanoma 93.1% | M14 melanoma 106%

COc1cc(CN(CCCl)CCBr)cc(OC)c1
inactive: NCI-H23 lung 104% | NCI-H226 lung 99.3% | NCI-H322M lung 113% | HOP-62 NSCLC 99.7% | NCI-H460 lung 104% | HOP-92 NSCLC 113% | NCI-H522 lung 82.1% | A549/ATCC NSCLC 98.3% | 786-0 renal 111% | COLO 205 colon 116% | DU-145 prostate 112% | K-562 leukemia 108% | MALME-3M melanoma 111% | MDA-MB-231 breast 113% | RXF 393 renal 127% | SF-268 CNS 101% | SF-295 CNS 99.4% | SF-539 CNS 96% | UACC-257 melanoma 122% | M14 melanoma 109%
